# Values of other authors in paper PMC6005658 (Bioorganic & medicinal chemistry, 2017).
# Test system: κ opioid receptors in brain
substance,measurement,value
"[N^α-benzyl-Tyr^1,cyclo(D-Asp^5,Dap^8)]Dyn A-(1–11)NH2 [zyklophin]",blood-brain barrier crossing,can cross the blood-brain barrier
